Data published in US9801872B2, “Pyridinyl and fused pyridinyl triazolone derivatives” (Takeda Pharmaceutical Company Limited, priority 2013, dated 2017).

By UniProt entry, the sequences of proteins in these tests, tags left out. Residues count along the entry.
UniProt Q06187, 382-659: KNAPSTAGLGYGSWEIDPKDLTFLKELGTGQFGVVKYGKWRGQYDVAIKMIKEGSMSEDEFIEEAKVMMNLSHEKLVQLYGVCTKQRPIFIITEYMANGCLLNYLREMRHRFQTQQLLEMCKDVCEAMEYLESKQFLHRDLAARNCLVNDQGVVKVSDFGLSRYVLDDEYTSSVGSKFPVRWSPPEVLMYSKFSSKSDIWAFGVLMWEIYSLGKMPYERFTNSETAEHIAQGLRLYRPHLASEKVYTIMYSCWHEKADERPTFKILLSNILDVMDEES

Molecular target: human BTK (Homo sapiens (Human), UniProt Q06187)
Test: BTK inhibition: BTK-mediated phosphorylation of FAM-labeled substrate 5-FAM-EEPLYWSFPAKKK-NH2 (Caliper LC-3000)
Format: biochemical
Details: residues 382 to 659 of human BTK; 60 minutes at room temperature; pIC50 = -log(IC50), IC50 molar
Description: The activity of compounds as BTK inhibitors may be determined by a variety of methods, including in vitro and in vivo methods.
This construct engineers an in-frame translational fusion with the Glutathione-S-Transferase (GST) protein for use in affinity purification. The fusion protein derived from this construct contains a protease recognition sequence to liberate the BTK from the GST affinity tag. High-titer baculoviral stocks, generated using the Bac-to-Bac® system (Invitrogen), are used to express the recombinant protein in Spodoptera frugiperda Sf9 cells in 10 L Wave bags. Recombinant proteins are isolated from cellular extracts by passage over Glutathione Sepharose 4B (GE Healthcare) and the BTK moiety is released from the GST affinity tag by treatment with PreScission protease. […] The purity of the fractions is assessed by SDS PAGE and the peak protein fractions are pooled and concentrated using Amicon Ultra-15 Centrifugal Filter Devices (Millipore).
The inhibitory properties of compounds relative to BTK is determined using a black 384-well-plate format in a buffer which contains 50 mM Hepes, 10 mM NaCl, 10 mM MgCl2, 0.2 mM EDTA, 0.01% Brij35®, 1 mM DTT, and 0.1 mg/mL BSA at pH 7.3. […] To quantify the fluorescent-labeled substrate and product following reaction, the test plate is loaded on a Caliper LC-3000, which measures percent of conversion by microfluidic-based separation. […]

BTK Inhibition (pIC50): 8.2
Structure (SMILES): CN(C)C/C=C/C(=O)N1CC[C@H](Oc2nc(-c3n[nH]c(=O)[nH]3)cc3ccccc23)C1 [Example 14, (S,E)-5-(1-((1-(4-(dimethylamino)but-2-enoyl)pyrrolidin-3-yl)oxy)isoquinolin-3-yl)-2,4-dihydro-3H-1,2,4-triazol-3-one]
